The values that follow are results of earlier work, collected in US20230340136A1, “TREATMENT OF CLL” (NOVARTIS AG, priority 2020, published 2023).

Amino acid sequences for entries named in this document (tags omitted). A change or cut given only in a name is not applied to a line headed by its entry.
UniProt Q06187: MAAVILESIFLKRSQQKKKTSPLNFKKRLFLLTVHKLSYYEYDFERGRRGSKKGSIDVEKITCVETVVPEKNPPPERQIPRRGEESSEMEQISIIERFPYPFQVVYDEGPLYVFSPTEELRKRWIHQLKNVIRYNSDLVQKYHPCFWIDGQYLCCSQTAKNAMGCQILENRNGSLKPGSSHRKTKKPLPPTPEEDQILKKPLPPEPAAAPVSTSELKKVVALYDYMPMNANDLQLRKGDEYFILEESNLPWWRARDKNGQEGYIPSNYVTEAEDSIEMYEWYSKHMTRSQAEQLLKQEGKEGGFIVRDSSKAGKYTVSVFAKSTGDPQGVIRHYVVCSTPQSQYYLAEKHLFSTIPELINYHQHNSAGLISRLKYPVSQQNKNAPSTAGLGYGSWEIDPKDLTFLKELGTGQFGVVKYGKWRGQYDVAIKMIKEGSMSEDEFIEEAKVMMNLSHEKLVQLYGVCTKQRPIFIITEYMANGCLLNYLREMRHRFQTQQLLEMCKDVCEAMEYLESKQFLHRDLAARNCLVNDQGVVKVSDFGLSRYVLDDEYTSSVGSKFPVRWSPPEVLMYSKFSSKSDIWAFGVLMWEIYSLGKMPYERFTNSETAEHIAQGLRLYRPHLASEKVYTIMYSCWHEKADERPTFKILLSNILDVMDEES

In general, IC50 refers to the concentration that inhibits the measured activity by half.

This series has as its target BTK (Homo sapiens, UniProt Q06187). To be noted: cited from earlier work.

Take `C=CC(=O)Nc1cccc(Nc2nc(Nc3ccc(OCCOC)cc3)ncc2F)c1` [spebrutinib]: the IC50 is less than 0.5 nM.
